Antibody variant affinities, Ab-14 light chain, assay B

The measurements come from Li et al. 2023 (doi:10.1038/s41467-023-39022-2) through the FLAb antibody collection.

All variants were tested on one target, the spike HR2 peptide PDVDLGDISGINAS (SARS-CoV-2).

Parent scFv Ab-14: VH joined to VL by three GGGGS repeats. Changes lie in the light chain CDRs alone.
VH: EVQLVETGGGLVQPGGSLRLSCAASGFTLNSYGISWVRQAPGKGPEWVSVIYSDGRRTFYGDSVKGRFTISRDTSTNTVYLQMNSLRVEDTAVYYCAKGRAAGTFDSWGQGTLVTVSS
VL: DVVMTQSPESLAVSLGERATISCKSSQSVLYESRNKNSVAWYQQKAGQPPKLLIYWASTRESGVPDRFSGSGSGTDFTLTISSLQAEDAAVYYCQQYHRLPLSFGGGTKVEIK

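The starting antibody came from a phage panning campaign against this peptide. Designed CDR sequences, proposed from the first random library and measured here. Group labels follow the data file (Ctrl: baseline library sampled from a position-specific scoring matrix, with some repeated check sequences; En: ensemble of fine-tuned language models; GP: Gaussian process model; HC: hill climbing; Gen: genetic algorithm; Gibbs: Gibbs sampling; a sequence that several methods proposed may carry one label only). The scFvs were displayed on barcoded MATa yeast, the peptide on MATalpha yeast. The frequency of each diploid, read from paired DNA barcodes, reflects how well the two displayed proteins bind. Scores were corrected for input abundance and mapped to Kd with protein pairs of known affinity run in the same pool. Mating was done six times.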

Each variant is given by its three light chain CDRs, as the data file delimits them; those of the parent are KSSQSVLYESRNKNSVA, WASTRES, QQYHRLPLS. Variants here have more than six changes. The Kd shown is the geometric mean over detected replicates; a lower Kd is a better binder. A pair that was not seen in any replicate is written "no signal"; this usually means weak binding, but a binder can also be missed. The authors averaged sequences with at least three values out of six and counted those with two or fewer as poor binders. Background: pairings of all light chain designs with three empty control strains gave a value in 4% of cases (median 430 nM, 5th percentile 38 nM). Values in that range, when seen in few replicates, are hard to tell from nonspecific mating. Also given: how often the same scFv was detected with the empty control strains. Values of this round are not directly comparable with the first-round values of the same sequences.

- KLTDYMQHSIAMDNSIA | QTNIYHE | QQYGRLPLV [En_Gibbs] = 23 nM (6 of 6 replicates; controls 3 of 18)
- NLGQKMSLETEQRNSIA | DSTVRED | QQYSRIPLI [En_Gibbs] = 3.0 nM (6 of 6 replicates; controls 0 of 18)
- YAQMPFHEVGKDEQNIA | NATTRES | QQYFRLPIL [En_Gibbs] = no signal (0 of 6 replicates; controls 0 of 18)
- KFNMEVGGQNNNKYAIA | AAHQLEY | QTYHRLPLS [En_Gibbs] = 67 nM (2 of 6 replicates; controls 1 of 18)
- KVSCSVMLESRNWNAVA | EASQRES | QDYHRLPLS [GP_Gibbs] = 2.0 nM (6 of 6 replicates; controls 2 of 18)
- KLQQSVGYESRNQNAVA | AASQREE | QQYHRLPLS [GP_Gibbs] = 2.9 nM (6 of 6 replicates; controls 1 of 18)
- KVSEFMRGLMQKTDSIA | DNQTRES | QQYDRLPLS [En_Gen] = 43 nM (6 of 6 replicates; controls 2 of 18)
- TISSVMQTQSHSKNNVA | EVSTRLE | QQYFRLPLE [En_Gen] = 45 nM (4 of 6 replicates; controls 1 of 18)
- MISQLFMYGSRHYNSIA | QASTREK | QQYDRLPLI [En_HC] = 34 nM (6 of 6 replicates; controls 1 of 18)
- KISMLINQTFQLENNVA | EMVTREK | QQYNRLPLS [En_Gen] = no signal (0 of 6 replicates; controls 1 of 18)
- TISYSAMMTGLNRNSVA | QAEERLE | QQYHRLPLS [En_HC] = 1.5 nM (6 of 6 replicates; controls 0 of 18)
- QLENVQSNDTILENNVA | HAEVSGR | QQYSQLPLI [En_Gibbs] = 360 nM (3 of 6 replicates; controls 2 of 18)
- KLRQVTGYESYNKNSVA | QTSTRAS | QFYHRLPLS [En_HC] = 43 nM (6 of 6 replicates; controls 2 of 18)
- QVQYAPGESLRHTNSIA | DVNIKDM | QQYSRLPLS [En_Gibbs] = 1.5 nM (6 of 6 replicates; controls 3 of 18)
- QLQQVQQEDTIGEYNVA | HAEVSGR | QQYSQLPLI [En_Gibbs] = 470 nM (1 of 6 replicates; controls 0 of 18)
- HLSDLLSYGKDLQAAVA | GVQTRMT | QQYARLPLF [En_Gibbs] = 1.5 nM (6 of 6 replicates; controls 2 of 18)
- KMQGSVMMLSRNCNSVA | QASTREQ | QQYHRLPLS [GP_Gibbs] = 2.9 nM (6 of 6 replicates; controls 1 of 18)
- VFQQQWDGVTTTNSAVA | NVDERME | QQYNRLPLM [En_Gibbs] = 2.2 nM (6 of 6 replicates; controls 2 of 18)
- HISQSVGMTSFNKNSVA | ENSTREE | QQYDRLPLS [En_HC] = 250 nM (6 of 6 replicates; controls 2 of 18)
- KFSQQVLYESRVKNSVA | NASQRLE | QQYHRLPLS [GP_Gibbs] = 640 pM (6 of 6 replicates; controls 3 of 18)
- SMFEKEYAELQNENNIA | DTTARMV | QQYFRLPLL [En_Gibbs] = 740 pM (6 of 6 replicates; controls 0 of 18)
- HMSMLTLSGMRHTNSVA | QMTTRVN | QQYDRLPLV [En_Gen] = 13 nM (6 of 6 replicates; controls 0 of 18)
- TIGQTLMSGVRNRSNVA | EVSERLN | QQYDRLPLL [En_Gen] = 26 nM (6 of 6 replicates; controls 2 of 18)
- NMTLQVRNGENNKYNIA | AEVKRVY | QQYQRLPLM [En_Gibbs] = 18 nM (6 of 6 replicates; controls 1 of 18)
- NLTTGYRQGALNTDNVA | HGNMREA | QQYYRLPLS [En_Gibbs] = 730 pM (6 of 6 replicates; controls 1 of 18)
- KLRQMTATEGYFKNSVA | QASTREN | QSYHRLPLS [En_HC] = 14 nM (6 of 6 replicates; controls 0 of 18)
- KLSQVTHSELRNKNSIA | EMVTREV | QQYDRLPLS [En_HC] = 5.8 nM (6 of 6 replicates; controls 0 of 18)
- MMAHQPESINQRMNNVA | NGAEAVE | QQYDRLPLI [En_Gibbs] = 8.0 nM (6 of 6 replicates; controls 0 of 18)
- ALGQKGFQQSGMRDSIA | HSDQRLA | QQYYHLPLA [En_Gibbs] = 840 pM (6 of 6 replicates; controls 3 of 18)
- KLRNVTGTEKVIGNNVA | EMETRER | QQYNRLPLS [En_Gen] = 250 nM (1 of 6 replicates; controls 0 of 18)
- KFAYGLDYNNAHKSAVA | HADIRNI | QQYFRLPLD [En_Gibbs] = 6.0 nM (6 of 6 replicates; controls 0 of 18)
- VIDAFNFSNGQKWNNVA | QTSVRLQ | QSYQRLPLM [En_Gibbs] = 20 nM (6 of 6 replicates; controls 4 of 18)
- KSPKSQLYESRNCNSVA | DASTREE | QQYHRLPPI [Ctrl] = no signal (0 of 6 replicates; controls 0 of 18)
- QLELVQSNDTILENSVA | HAEVSGR | QQYSQLPLI [En_Gibbs] = no signal (0 of 6 replicates; controls 0 of 18)
- KIYHGVTGTSRKGNSVA | QAETRVD | QQYHRLPLM [En_HC] = 2.7 nM (6 of 6 replicates; controls 0 of 18)
- KLMMFMQEIGCMKNNIA | NLEMGAR | QQYAQLPLV [En_Gibbs] = no signal (0 of 6 replicates; controls 0 of 18)
- MIAESVGYQSRNKNSVA | DNSTREQ | QCYDRLPLS [En_HC] = no signal (0 of 6 replicates; controls 0 of 18)
- KVMQSVLGLQRAQNSVA | EASTRES | QQYHRLPLS [GP_Gibbs] = 580 pM (6 of 6 replicates; controls 1 of 18)
- MISQVMNMLTHTGNNVA | DLQEREE | QQYFRLPLS [En_Gen] = 86 nM (5 of 6 replicates; controls 0 of 18)
- HITYGMMVAGRHMESIA | QAEERAK | QQYDRLPLS [En_Gen] = 2.2 nM (6 of 6 replicates; controls 0 of 18)
- KLQQSELYESRNTNSVA | GASTRLE | QQYHRLPLS [GP_Gibbs] = 700 pM (6 of 6 replicates; controls 2 of 18)
- QLQYAPGESLRSTHSIA | DVNIKDM | QQYARLPLA [En_Gibbs] = 2.0 nM (6 of 6 replicates; controls 3 of 18)
- TISQTFMMENQFKNSVA | QASTRES | QCYDRLPLS [En_HC] = 26 nM (3 of 6 replicates; controls 1 of 18)
- KLMQGWLYESRNKNSVA | NASKRLE | QQYHRLPLS [GP_Gibbs] = 2.6 nM (6 of 6 replicates; controls 0 of 18)
- NISIEDVSEHNQANNVA | STDCRCS | QQYFHLPLM [En_Gibbs] = 3.8 nM (6 of 6 replicates; controls 0 of 18)

From the list, the first 3 with no signal in any replicate:

* YAQMPFHEVGKDEQNIA | NATTRES | QQYFRLPIL [En_Gibbs] -> no signal (0 of 6 replicates; controls 0 of 18)
* KISMLINQTFQLENNVA | EMVTREK | QQYNRLPLS [En_Gen] -> no signal (0 of 6 replicates; controls 1 of 18)
* KSPKSQLYESRNCNSVA | DASTREE | QQYHRLPPI [Ctrl] -> no signal (0 of 6 replicates; controls 0 of 18)